{"source": "paper PMC7092418", "about": "(Genes and Environment, 2020)", "key": {"human skin fibroblasts": {"tested_on": "human skin fibroblasts", "details": "cited from earlier work"}, "Chinese hamster cells": {"tested_on": "Chinese hamster cells", "details": "cited from earlier work"}, "S. typhimurium TA1535": {"tested_on": "S. typhimurium TA1535", "assay": "Ames mutagenicity assay, strain TA1535 (hisG46)", "details": "S9 for AFB1"}, "S. typhimurium TA100": {"tested_on": "S. typhimurium TA100", "assay": "Ames mutagenicity assay, strain TA100 (hisG46, pKM101)", "details": "slope of dose-response curve, S9 for AFB1, AF-2: only zero plus 2 first doses"}, "S. typhimurium YG9029": {"tested_on": "S. typhimurium YG9029", "details": "slope of dose-response curve, AF-2: only zero plus 2 first doses"}, "S. typhimurium YG9028": {"tested_on": "S. typhimurium YG9028", "assay": "Ames mutagenicity assay, strain YG9028 overexpressing PolRI* (MucA' + MucB)", "details": "slope of dose-response curve, AF-2: only zero plus 2 first doses"}}, "note": "Where two headings read alike, the source gives them in different places.", "data": [{"compound": "azidoalanine", "values": [{"measurement": "Genotoxicity (SCEs and unscheduled DNA synthesis)", "setting": "human skin fibroblasts", "value": "did not show any appreciable genotoxicity"}, {"measurement": "Genotoxicity (SCEs and unscheduled DNA synthesis)", "setting": "Chinese hamster cells", "value": "did not show any appreciable genotoxicity"}]}, {"compound": "[N-]=[N+]=NCC(O)CO", "note": "(stereo not shown)", "values": [{"measurement": "Specific mutagenicity", "setting": "S. typhimurium TA1535; TA1535, IPTG 0.2 mM in top agar, slope of dose-response curve", "value": 1.151, "unit": "revertants/plate/nmole"}, {"measurement": "Specific mutagenicity", "setting": "S. typhimurium TA1535; TA1535, no IPTG, slope of dose-response curve (linear regression), 20-min preincubation", "value": 1.047, "unit": "revertants/plate/nmole"}, {"measurement": "Specific mutagenicity", "setting": "S. typhimurium TA100; TA100, IPTG 0.2 mM in top agar", "value": 0.646, "unit": "revertants/plate/nmole"}, {"measurement": "Specific mutagenicity", "setting": "S. typhimurium TA100; TA100, no IPTG", "value": 0.817, "unit": "revertants/plate/nmole"}, {"measurement": "Specific mutagenicity", "setting": "S. typhimurium YG9029; YG9029, IPTG 0.2 mM (induced lac promoter)", "value": 0.464, "unit": "revertants/plate/nmole"}, {"measurement": "Specific mutagenicity", "setting": "S. typhimurium YG9029; YG9029, no IPTG (uninduced lac promoter)", "value": 0.753, "unit": "revertants/plate/nmole"}, {"measurement": "Specific mutagenicity", "setting": "S. typhimurium YG9028; YG9028, IPTG 0.2 mM (induced lac promoter)", "value": 0.128, "unit": "revertants/plate/nmole"}, {"measurement": "Specific mutagenicity", "setting": "S. typhimurium YG9028; YG9028, no IPTG (uninduced lac promoter)", "value": 0.42, "unit": "revertants/plate/nmole"}]}]}
